Earlier results in paper PMC3726058 (European journal of pharmacology, 2010).

System: σ1 subtype relative to σ2
Settings: ref Yous et al., 2005

CCCc1ccc2c(c1)sc(=O)n2CCN1CCCCCC1 [SN56, 3-(2-(azepan-1-yl)ethyl)-6-propylbenzo[d]thiazol-2(3H)-one]
selectivity for σ1 relative to σ2: > 1,000 fold
